# Earlier results in patent US12209143B2, “Versatile peptide and protein macrocyclization and multimerization with diels-alder cycloadditions” (The University of Chicago, priority 2019, dated 2025).
# Conditions: in vivo; cited from earlier work
sequence,measurement,value
SCFGGRMDRIGAQSGLGCNSF [ANP-WT],circulating half-life,< 5 min
